# Biological target: T1, human trkC extracellular domain fused to immunoglobulin constant domains (receptor immunoadhesin) (human, UniProt Q16288 32-429)
# T1 construct: extracellular domain
# Assay: competitive displacement binding on human trkC immunoadhesin
binder,measurement,value
NGF126 (SEQ ID NO:10) (ligand) SSSHPIFHRGEFSVCDSESLWVTDKTTATDIKGKEVMVLGEVNINNSVFKQYFFETKCRDPNPVDSGCRGIDSKHWNSYCKTTQTYVKALTMDGKQAAWRFIRIDTACVCVLSRKAVRRA,fold improvement in binding to trkC compared to NGF12,4.5 fold
